Data taken from ChEMBL document CHEMBL1129773, “Novel 1,2-diarylcyclobutenes: Selective and orally active cox-2 inhibitors” (Bioorg Med Chem Lett, 1996).

Amino acid sequences for entries named in this document (tags omitted).
UniProt P23219, whole entry: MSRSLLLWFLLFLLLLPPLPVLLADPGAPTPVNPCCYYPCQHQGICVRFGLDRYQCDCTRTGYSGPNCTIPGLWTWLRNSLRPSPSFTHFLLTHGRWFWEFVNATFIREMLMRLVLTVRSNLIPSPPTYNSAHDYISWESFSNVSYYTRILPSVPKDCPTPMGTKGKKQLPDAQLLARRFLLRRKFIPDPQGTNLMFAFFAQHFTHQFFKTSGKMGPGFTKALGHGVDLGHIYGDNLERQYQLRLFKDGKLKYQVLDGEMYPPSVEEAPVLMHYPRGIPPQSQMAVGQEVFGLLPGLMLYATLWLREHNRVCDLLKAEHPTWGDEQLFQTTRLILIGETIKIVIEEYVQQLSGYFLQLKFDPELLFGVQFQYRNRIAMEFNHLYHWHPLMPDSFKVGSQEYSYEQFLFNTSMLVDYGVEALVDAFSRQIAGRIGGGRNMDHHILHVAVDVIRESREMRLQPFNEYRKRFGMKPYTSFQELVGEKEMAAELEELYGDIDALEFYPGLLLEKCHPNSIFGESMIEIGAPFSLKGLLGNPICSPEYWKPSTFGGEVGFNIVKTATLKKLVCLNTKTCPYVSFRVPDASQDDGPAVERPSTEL

Biological target: Prostaglandin G/H synthase 1 (Homo sapiens, UniProt P23219)

- IC50: 2000 nM
SMILES: CC1(C)C(=O)C(c2ccccc2)=C1c1ccc(S(C)(=O)=O)cc1
